Measured values: paper PMC8545574, “Antioxidant, Anti-Inflammatory, and Antidiabetic Activities of Bioactive Compounds from the Fruits of Livistona chinensis Based on Network Pharmacology Prediction” (Oxidative Medicine and Cellular Longevity, 2021)
Read-outs that look alike come from different tables or passages of the source.

Biological target: T1, PTP1B (Homo sapiens, UniProt P18031)
T1 sequence (P18031 1-321 limits assumed): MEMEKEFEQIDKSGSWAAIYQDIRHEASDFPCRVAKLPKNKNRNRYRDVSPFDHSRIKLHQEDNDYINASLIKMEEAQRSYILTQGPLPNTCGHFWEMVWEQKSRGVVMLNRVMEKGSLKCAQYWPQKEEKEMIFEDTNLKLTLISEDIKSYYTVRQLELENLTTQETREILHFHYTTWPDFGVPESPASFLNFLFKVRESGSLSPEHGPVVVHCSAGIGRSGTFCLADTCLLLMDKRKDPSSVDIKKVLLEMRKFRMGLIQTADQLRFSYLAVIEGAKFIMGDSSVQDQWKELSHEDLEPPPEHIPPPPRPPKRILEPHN
Assay: PTP1B inhibitory assay (p-NPP substrate)

Molecule: COc1cc(-c2oc3cc(O)cc(O)c3c(=O)c2O[C@@H]2O[C@H](CO)[C@@H](O)[C@H](O)[C@H]2O)ccc1O [Compound 11, isorhamnetin-3-O-β-D-glucoside]
- IC50: 90.21 ± 0.37 µM

Molecule: (+)-pinoresinol [Compound 29]
- IC50 (read-out: IC50 PTP1B inhibitory effect, mean ± SD, n = 3): 90.2 ± 1.87 µM
